The text below walks through data of publication PMC9411691, “Protein-Ligand Identification and In Vitro Inhibitory Effects of Cathine on 11 Major Human Drug Metabolizing Cytochrome P450s” (International Journal of Toxicology, 2022).

Sequences of proteins named here, by UniProt entry; tags and fusion partners are left off.
UniProt P10635, whole entry: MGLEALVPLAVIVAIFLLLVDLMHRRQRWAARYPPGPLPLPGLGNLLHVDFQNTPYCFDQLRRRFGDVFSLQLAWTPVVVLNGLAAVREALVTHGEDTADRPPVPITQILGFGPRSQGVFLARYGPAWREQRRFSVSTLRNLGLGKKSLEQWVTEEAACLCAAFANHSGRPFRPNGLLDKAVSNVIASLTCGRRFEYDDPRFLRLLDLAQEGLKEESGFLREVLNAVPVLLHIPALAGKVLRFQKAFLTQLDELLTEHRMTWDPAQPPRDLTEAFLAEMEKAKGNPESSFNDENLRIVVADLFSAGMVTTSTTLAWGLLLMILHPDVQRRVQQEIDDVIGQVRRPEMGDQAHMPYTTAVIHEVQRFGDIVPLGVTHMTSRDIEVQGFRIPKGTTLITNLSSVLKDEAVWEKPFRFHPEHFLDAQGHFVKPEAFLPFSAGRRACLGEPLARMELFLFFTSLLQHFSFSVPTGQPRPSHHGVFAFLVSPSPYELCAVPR

Structures are written as SMILES. Counter-ions that a name gives are not always drawn.

For series [1], the target named is CYP2D6 (Homo sapiens, UniProt P10635). Description: Vivid CYP450 fluorescence-based inhibition assay, CYP2D6. As to conditions: pH 8, probe Vivid EOMCC (ethoxymethyloxy-3-cyanocoumarin).
Series [2] deals with T1, CYP1A2 (Homo sapiens, UniProt P05177).
T1 sequence (P05177 2-516 limits assumed): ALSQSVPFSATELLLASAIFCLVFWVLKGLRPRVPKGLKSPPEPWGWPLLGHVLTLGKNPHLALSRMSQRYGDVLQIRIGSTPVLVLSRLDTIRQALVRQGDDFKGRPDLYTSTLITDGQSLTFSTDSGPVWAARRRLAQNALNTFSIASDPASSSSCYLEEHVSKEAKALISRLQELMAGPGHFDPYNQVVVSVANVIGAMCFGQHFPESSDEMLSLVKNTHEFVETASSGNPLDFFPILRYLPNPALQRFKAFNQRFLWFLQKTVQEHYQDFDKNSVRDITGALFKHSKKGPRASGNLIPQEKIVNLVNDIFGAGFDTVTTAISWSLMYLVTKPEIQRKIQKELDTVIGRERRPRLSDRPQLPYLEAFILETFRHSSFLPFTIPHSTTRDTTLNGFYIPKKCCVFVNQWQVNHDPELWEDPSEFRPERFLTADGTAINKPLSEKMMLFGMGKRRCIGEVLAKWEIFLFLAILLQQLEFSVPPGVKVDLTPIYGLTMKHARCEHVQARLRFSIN
Description: Vivid CYP450 fluorescence-based inhibition assay, CYP1A2. As to conditions: pH 8, probe Vivid EOMCC (ethoxymethyloxy-3-cyanocoumarin).

Turning to `C[C@H](N)[C@@H](O)c1ccccc1` [Cathine, (1 S, 2 S)-2-amino-1-phenylpropan-1-ol.hydrochloride], the IC50 shift at 60 min turned out to be 0.51 in series [1] and 1.12 in series [2].
